Experimental data: publication PMC12029836, “Phytotoxicity, Cytotoxicity, and Antimicrobial Activity of Triethanolammonium Amino Acids Salts” (Molecules, 2025)
Values joined by “and” are separate entries in the source; they are usually repeats but may differ in a detail not shown here. Equal entries are not always repeated. Only a part of the results on these compounds is given; other tests are left out.

Tests used:
L929 fibroblasts = test: Mammalian cell cytotoxicity screening, resazurin viability; format: cell-based, mouse
E. coli ATCC 8739 = test: Antimicrobial activity, broth microdilution MIC/MBC; format: cell-based, Escherichia coli; settings: nd—not detected
C. albicans ATCC 10231 = test: as above; format: cell-based, Candida albicans; settings: nd—not detected

OCCN(CCO)CCO
ED20 (L929 fibroblasts; 24h exposure): 0.22±0.01% | ED50 (L929 fibroblasts; 24h exposure): 0.33±0.02% and 0.33% | ED80 (L929 fibroblasts; 24h exposure): 0.44±0.02% | ED20 (L929 fibroblasts; 48h exposure): 0.12±0.01% | ED50 (L929 fibroblasts; 48h exposure): 0.22±0.01% and 0.22% | ED80 (L929 fibroblasts; 48h exposure): 0.33±0.02% | MIC (%) (E. coli ATCC 8739; E. coli ATCC 8739, 24 h at 37 °C, at least 90% growth inhibition): 3.13% | MBC (%) (E. coli ATCC 8739; E. coli ATCC 8739): 3.13% | MIC (%) (C. albicans ATCC 10231; C. albicans ATCC 10231, 24 h at 37 °C, at least 90% growth inhibition): 6.25% | MBC (%) (C. albicans ATCC 10231; C. albicans ATCC 10231): 25%
